{"source": "patent US8653083B2", "about": "“Hedgehog pathway antagonists to treat disease” (The Johns Hopkins University, priority 2005, dated 2014)", "system": "22RV1 xenografts", "test": "22RV1 human prostate cancer xenografts in athymic mice, tumor growth", "format": "in vivo", "conditions": "cyclopamine comparator, dose not given"}
{"compound": "CC1=C2C[C@H]3[C@@H](CC=C4C[C@@H](O)CC[C@@]43C)[C@@H]2CC[C@]12O[C@@H]1C[C@H](C)CN[C@H]1[C@H]2C", "note": "[Cyclopamine]", "values": [{"measurement": "tumor growth of established xenografts", "result": "complete and durable regression"}]}
